Assay results published in patent publication US11925672B2, “Peptide having antioxidant activity and composition containing same” (SEMPIO FOODS COMPANY, priority 2018, dated 2024).

What was measured:
[1] = DPPH-scavenging ability assay; type: biochemical; details: peptides; vs GSH
Method: 2. DPPH (2,2-Diphenyl-1-Picryl-Hydrazyl-Hydrate) Assay Method
The antioxidant activity due to the DPPH-scavenging ability of yeast hydrolyzates was measured using the methods of Choi Chang-seop et al. (2003) and Shekhar et al. (2014). 20 μl of a sample (1 to 5000 μg/ml) dissolved in distilled water was added to 180 μl of an ethanol solution containing DPPH (0.111 mM). The resulting mixture was allowed to react at 25° C. for 30 minutes, and absorbance was measured at 517 nm. Ascorbic acid was used to create the standard curve, and DPPH-scavenging ability (%) was calculated and expressed by the equation of [(absorbance upon no addition of sample−absorbance of sample)/absorbance upon no addition of sample]×100.
(§1) The DPPH-scavenging ability and reducing power of the fractions of respective yeast hydrolyzates (Preparation Examples 1 to 4) were measured using the same method of measuring DPPH-scavenging ability and reducing power as in Experimental Example 1.

[2] = Reducing power assay (method of Oyaizu); details: peptides; vs GSH
Method: 3. Reducing Power Assay Method
The reducing power of yeast hydrolysates was measured using the method of Oyaizu (1986). Specifically, a sample (1-5000 μg/ml, 60 μl) dissolved in distilled water was mixed with phosphate buffer (150 μl, 0.2M, pH 6.6) and potassium ferricyanide (K 3 Fe(CN) 6, 150 μl, 1%), followed by reacting at 50° C. for 20 minutes. Further, 150 μl of trichloroacetic acid (10%) was added thereto, followed by centrifugation at 2,000 g for 10 minutes. 150 μl of the supernatant containing the sample was added to 150 μl of DW and FeCl3 (30 μl, 0.1%). The resulting mixture was allowed to react at 25° C. for 10 minutes, and absorbance was measured at 700 nm.
as §1

Nrf2 mRNA = Nrf2 mRNA expression level by real-time PCR in Tert-BHP-treated HEK293 cells; type: cell-based; details: Tert-BHP 300 μM, peptide 500 μM, 18 hours
Method: In the present invention, the antioxidant activity was compared between the 100 types of peptides, and the change in Nrf2 mRNA expression was measured through PCR in order to select the final peptide.
(§2) An HEK293 cell (kidney cell) line was seeded at a density of 6.6×10^5/well in DMEM (Dulbecco's Modified Eagle's Medium) medium on a 6-well plate and cultured at 37° C. under 5% CO2 for 24 hours. The next day, the medium was exchanged with serum and amino-acid-free media, and then the cells were further cultured for 20 hours or longer. The cells were treated with Tert-BHP (300 μM) and 500 μM 100 types of peptides, and then cultured for 18 hours.
RNA was extracted from the cells treated with 100 types of peptides in (1) using TRIzol (Thermo Fisher Scientific). A GoScript™ Reverse Transcription System (Promega, Wisconsin, USA) was used to synthesize cDNA from the RNA. The cDNA was synthesized by performing annealing using 1 μg of RNA, 0.5 μg of an oligo dt primer, 0.5 μg of a random primer and RT-PCR pre-mixture at 25° C. for 5 minutes, extension at 42° C. for 60 minutes, and inactivation at 70° C. for 15 minutes.
(§3) PCR was performed using Maxime™ PCR PreMix (i-StarTaq) (Intron Biotechnology, Korea). Real-time PCR was performed using SsoAdvanced™ Universal SYBR® Green Supermix (Bio-Rad, USA). 100 ng of cDNA, 2 μM (pmol/μl) primers, 10 μl of 2X SsoAdvanced™ Universal SYBR® Green Supermix and DW were added to the PCR plate well. Then, the temperature was cyclically adjusted to 95° C. for 3 minutes, 95° C. for 10 seconds and 58° C. for 40 seconds for a total of 40 cycles. A PCR reaction was performed using a CFX96 Touch™ Real-Time PCR Detection System (Bio-Rad, California, USA), and fluorescence intensity was measured at the end of each cycle.

SOD2 mRNA = SOD2 mRNA expression level by real-time PCR in Tert-BHP-treated HEK293 cells; type: cell-based; details: Tert-BHP 300 μM, peptide 500 μM, 18 hours
Method: The expression of SOD2 mRNA as another antioxidant factor was determined. The cell line culture, RNA extraction, cDNA synthesis and PCR experiments were performed in the same manner as in Experimental Example 5 above. A detailed description thereof is given below.
as §2, with “and” for “under”
RNA was extracted from the cells treated with 100 types of peptides in (1) using TRIzol (Thermo Fisher Scientific). A GoScript™ Reverse Transcription System (Promega, Wisconsin, USA) was used to synthesize cDNA from the RNA. The cDNA was synthesized by performing annealing with 1 μg RNA, 0.5 μg of an oligo dt primer, 0.5 μg of a random primer, and RT-PCR pre-mixture at 25° C. for 5 minutes, extension at 42° C. for 60 minutes, and inactivation at 70° C. for 15 minutes.
as §3, with “using the” for “using a”

## γ-GLU-HIS (EH; gamma-glutamyl linkage; The peptide is a formed by condensation of the gamma-carboxy group of L-glutamic acid with the amino group of L-histidine.)
[1]
  DPPH-scavenging ability of peptide compared to GSH: comparable or superior to GSH
[2]
  reducing power of peptide compared to GSH: comparable or superior to GSH
Nrf2 mRNA; FIGS. 5A to 5C
  effect on expression of Nrf2 mRNA: improve the expression of Nrf2 mRNA
Nrf2 mRNA; vs GSH
  Nrf2 mRNA expression compared to positive control GSH: statistically significant activity; also recorded: comparable or superior to GSH
SOD2 mRNA; FIG. 6
  effect on SOD2 mRNA expression: increased SOD2 mRNA expression
SOD2 mRNA; vs GSH
  SOD2 mRNA expression compared to positive control GSH: comparable or superior; also recorded: statistically significant activity

Entries after “also recorded” stand apart in the source; their conditions may differ.
